This is a selection; strong and weak results do not stand in their true shares. Records with an inconclusive call do not appear. The source made the active and inactive calls. The call rests on the fitted dose curve; in most records, active means well fitted inhibition curve with a large enough effect; inconclusive means small, poorly fitted or top-dose-only effect, or another doubt; inactive means no such curve, though single readings can be large or run the other way.
Target: DNA polymerase eta (Homo sapiens) (UniProt Q9Y253)
Assay: qHTS for Inhibitors of Polymerase Eta
Conditions: recombinant Pol eta, fluorescent DNA replication assay; series mostly up to 114 µM; activity change, negative = inhibition: at the top concentration
On the % scale 0 is the no-effect control and ±100 the full control effect; potency means the concentration at half of the fitted maximal effect.

Sequences of proteins named here, by UniProt entry; tags and fusion partners are left off. A change or cut given only in a name is not applied to a line headed by its entry.
UniProt Q9Y253: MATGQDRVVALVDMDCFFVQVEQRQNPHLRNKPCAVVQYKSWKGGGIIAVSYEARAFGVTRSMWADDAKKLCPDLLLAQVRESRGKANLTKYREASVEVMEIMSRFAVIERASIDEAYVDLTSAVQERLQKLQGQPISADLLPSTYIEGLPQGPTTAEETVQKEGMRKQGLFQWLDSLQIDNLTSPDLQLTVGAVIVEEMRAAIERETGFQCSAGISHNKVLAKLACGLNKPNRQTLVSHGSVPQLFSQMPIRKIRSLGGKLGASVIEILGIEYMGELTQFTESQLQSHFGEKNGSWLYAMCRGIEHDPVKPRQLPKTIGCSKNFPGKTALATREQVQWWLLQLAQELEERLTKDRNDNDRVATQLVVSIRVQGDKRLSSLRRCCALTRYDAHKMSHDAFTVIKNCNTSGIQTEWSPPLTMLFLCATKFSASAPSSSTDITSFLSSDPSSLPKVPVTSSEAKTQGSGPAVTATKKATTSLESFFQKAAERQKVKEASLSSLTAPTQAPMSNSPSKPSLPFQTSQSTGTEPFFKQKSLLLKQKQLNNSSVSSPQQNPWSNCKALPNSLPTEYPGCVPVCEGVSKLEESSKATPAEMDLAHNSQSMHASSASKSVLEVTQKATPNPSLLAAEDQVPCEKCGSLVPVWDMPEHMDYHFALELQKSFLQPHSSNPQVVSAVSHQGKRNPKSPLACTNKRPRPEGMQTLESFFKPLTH

Structure (SMILES)	activity change, negative = inhibition	Potency
Cc1cc(=O)[nH]c(N[N+](=O)[O-])n1	inactive: 3.41%	
O=P1(N(CCCl)CCCl)Nc2ccccc2N1	inactive: 2.75%	
O=P1(N(CCCl)CCCl)OCCCN1CCCl (configuration not stated)	inactive: -8.24%	
COc1ccc2nc(NP(=O)(c3ccccc3)c3ccccc3)sc2c1	inactive: -16.3%	
COc1cc(I)ccc1[As](=O)(O)O	inactive: -4.41%	
O=[N+]([O-])c1cc(Oc2ccc([N+](=O)[O-])cc2C(F)(F)F)cc([N+](=O)[O-])c1	inactive: -5.54%	
COc1ccc(N/C(=N/P(=O)(N2CCOCC2)N2CCOCC2)N2CCOCC2)cc1	inactive: -21%	
O=C(OC1CN2CCC1CC2)c1ccc(Cl)cc1 (configuration not stated)	inactive: -11.1%	
CN(C(=O)Cc1ccc(Cl)c(Cl)c1)[C@@H]1CC[C@]2(CCCO2)C[C@H]1N1CCCC1	inactive: -2.07% [at 57.1 µM]	
O=[As](O)(O)c1cccnc1	inactive: 3.13%	
COc1cc(C(=O)NCC2(N3CCOCC3)CCCCC2)cc(Cl)c1OC(C)C	inactive: -7.98%	
CS(=O)(=O)c1ccc(Cl)c(NC(=O)COC(=O)C(O)(c2ccccc2)c2ccccc2)c1	inactive: -20.4%	
Cc1cccc(OCC(=O)OC2CN3CCC2CC3)c1 (configuration not stated)	inactive: -0.163%	
O=[As](O)(c1cccc(O)c1)c1cccc(O)c1	inactive: -8.92%	
Cc1ccc(NCCc2c([N+](=O)[O-])cc([N+](=O)[O-])cc2[N+](=O)[O-])cc1	inactive: -16.3%	
Nc1cccc2c([As](=O)(O)O)cccc12		active: 20 µM
CCCOP(=S)(Nc1nc(N)cc(=O)[nH]1)OCCC	inactive: -14.9%	
COc1cc(C2NCCC3(OCCO3)C2(C)C)cc(OC)c1OC (configuration not stated)	inactive: -18.9%	
CCOP(=O)(Nc1cccc2ccccc12)OCC	inactive: -2.67%	
CCOP1(=S)c2c(C)nn(CCC#N)c2N=C(c2ccccc2F)N1C (configuration not stated)	inactive: -13.4%	
O=P(Nc1nccs1)(Oc1ccccc1)Oc1ccccc1	inactive: -7.86%	
O=P(Nc1nccs1)(c1ccccc1)c1nc2ccccc2s1 (configuration not stated)	inactive: 6.2%	
CS(=O)(=O)c1cc([N+](=O)[O-])c2no[n+]([O-])c2c1		active: 79.4 µM

Structure (SMILES)	activity change, negative = inhibition	Potency
O=C(O)COc1ccc([As](=O)(O)O)cc1[N+](=O)[O-]	inactive: 5.58%	
Nc1ccccc1[As](=O)(O)c1ccccc1	inactive: -16.5%	
NC(=O)Nc1ccc([As](=O)(O)O)cc1	inactive: -3.1%	
N#CCCN(C(=O)COC(=O)C(O)(c1ccccc1)c1ccccc1)c1ccc(F)cc1	inactive: -16.6%	
CCOP1(=S)c2c(C)nn(CCC#N)c2N=C(c2ccc(F)cc2)N1C (configuration not stated)	inactive: -2.75%	
CN(C(=O)Cc1ccccc1)[C@@H]1CC[C@]2(CCCO2)C[C@H]1N1CCCC1		inactive
O=[N+]([O-])c1ccc2c(c1)nnn2O	inactive: 2.3%	
CN(C)C(=O)c1cc([N+](=O)[O-])cc2c1-c1c(cc([N+](=O)[O-])cc1[N+](=O)[O-])C2=O	inactive: -20.2%	
CN(C(=O)Cc1ccc(Cl)c(Cl)c1)[C@H]1CC[C@@]2(CCCO2)C[C@@H]1N1CCCC1	inactive: -15.6%	
Cc1nn(-c2ccccc2)c2c1P(=O)(N1CCOCC1)N(C)C(c1ccccc1)=N2 (configuration not stated)	inactive: 3.11%	
Cc1ccc(C(=O)OC2CN3CCC2CC3)cc1 (configuration not stated)	inactive: -11.1%	
CC1CCC(C(C)C)C(OP(=O)(Nc2ccccn2)c2ccccc2)C1 (configuration not stated)	inactive: -12.8%	
CN(C)C1(CNC(=O)c2ccc(S(C)(=O)=O)cc2)CCCCC1	inactive: 6.37%	
O=C(/C=C/c1ccccc1)OC1CN2CCC1CC2 (configuration not stated)	inactive: -11%	
CCCC1OP(=O)(Nc2ccccc2)OCC1CC (configuration not stated)	inactive: -14.3%	
O=P1(Nc2ncccn2)COc2ccccc2OC1	inactive: -5.61%	
Nc1cccc([As](=O)(O)c2ccccc2)c1	inactive: -19.2%	
Cc1ccc(OCC(=O)OC2CN3CCC2CC3)cc1 (configuration not stated)	inactive: -14.4%	
O=[As](O)(c1cccs1)c1cccs1	inactive: -9.22%	
NS(=O)(=O)c1cccc(NC(=O)COC(=O)C(O)(c2ccccc2)c2ccccc2)c1	inactive: -15.5%	
O=P1(Nc2ccc(Br)cn2)COc2ccccc2OC1	inactive: -18.4%	
CCC1=CC2Cc3nc4ccc(Cl)cc4c(N)c3C(C1)C2 (configuration not stated)	inactive: -17.8%	
O=P1(Nc2ccccn2)COc2ccccc2OC1	inactive: -8.94%	

Structure (SMILES)	activity change, negative = inhibition	Potency
CCOP(=O)(NC(=NC(C)c1ccccc1)NC(C)c1ccccc1)OCC (configuration not stated)	inactive: -18.9%	
CCOP(=O)(Nc1ccc(C)cn1)OCC	inactive: -9.05%	
CN(CCCl)Cc1cc(Cl)c(NC2=NCCN2)c(Cl)c1		inactive
Clc1n[nH]nc1-c1nn[nH][15n]1	inactive: 1.65%	
O=P1(N(CCCl)CCCl)NCCC(C(F)(F)F)O1 (configuration not stated)	inactive: -15.7%	
CC(C)(C)C(=O)NC(Sc1ncccn1)C(Cl)(Cl)Cl (configuration not stated)	inactive: 3.2%	
COc1ccccc1CNC(=O)COC(=O)C(O)(c1ccccc1)c1ccccc1	inactive: -8.89%	
CN(C(=O)Cc1ccc(Cl)c(Cl)c1)[C@@H]1CCCC[C@H]1N1CCCC1		inactive
CC(C)/C=N\N=C(\N)N[N+](=O)[O-]	inactive: -20%	
CC1(CBr)Cn2c(nc3ccccc3c2=O)S1 (configuration not stated)	inactive: -15.5%	
O=P(Nc1nccs1)(c1ccccc1)c1ccccc1	inactive: -23%	
CC(C)C(=O)NC(Sc1ccccc1)C(Cl)(Cl)Cl (configuration not stated)	inactive: -17.5%	
c1nnnn1CCn1cnnn1	inactive: -8.22%	
CN(C)C1(CNC(=O)c2ccc(Cl)c(S(N)(=O)=O)c2)CCCCC1	inactive: -21.3%	
O=P(Nc1ccccn1)(c1ccc(Br)cc1)c1ccc(Br)cc1	inactive: -16.1%	
COc1ccc(N)c([N+](=O)[O-])c1[N+](=O)[O-]		active: 20 µM
O=P(Nc1nc2ccccc2s1)(c1ccccc1)c1ccccc1	inactive: -10.7%	
C[C@H]1OP(=O)(Oc2ccccc2)[C@H](O)[C@H](O)[C@H]1N=[N+]=[N-] (some centres not stated)	inactive: 2.75%	
O=[As](O)(c1ccccc1)c1ccc(O)cc1	inactive: -7.32%	
CC(=O)NC(SC(=S)N(C)C)C(Cl)(Cl)Cl (configuration not stated)	inactive: -17.3%	
O=[N+]([O-])c1ncn(CCn2cnc([N+](=O)[O-])n2)n1	inactive: -0.862%	
